Reference: patent publication US4797472A, “New peptide derivatives” (KabiVitrum AB, priority 1986, dated 1989)
Square brackets hold non-standard residues; d marks the D form. Peptide text beside a SMILES is read from it. * marks the point of attachment. pNA = O=[N+]([O-])c1ccc(N*)cc1; Cbz = O=C(OCc1ccccc1)*; Ms = CS(=O)(=O)*

Protein sequences, listed by entry. Tags and fused reporters are not part of them. Residues count along the entry.
UniProt P00742, 41-179 partner limits assumed: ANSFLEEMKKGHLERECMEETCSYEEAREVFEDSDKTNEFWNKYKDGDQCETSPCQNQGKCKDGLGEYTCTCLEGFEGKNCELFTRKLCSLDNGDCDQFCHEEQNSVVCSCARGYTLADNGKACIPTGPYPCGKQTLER
UniProt P00742, 235-488 limits assumed: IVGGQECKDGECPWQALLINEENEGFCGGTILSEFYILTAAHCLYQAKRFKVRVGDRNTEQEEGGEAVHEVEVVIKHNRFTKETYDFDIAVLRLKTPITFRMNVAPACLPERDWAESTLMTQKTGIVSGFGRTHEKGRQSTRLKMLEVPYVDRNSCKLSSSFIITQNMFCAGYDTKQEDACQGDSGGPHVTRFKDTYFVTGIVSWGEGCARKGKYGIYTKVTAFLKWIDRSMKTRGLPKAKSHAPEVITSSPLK
UniProt P00743, 41-180 partner limits assumed: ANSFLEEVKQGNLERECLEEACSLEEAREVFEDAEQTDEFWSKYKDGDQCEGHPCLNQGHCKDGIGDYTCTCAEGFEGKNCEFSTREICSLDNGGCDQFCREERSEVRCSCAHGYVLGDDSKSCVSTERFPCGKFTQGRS
UniProt P00743, 234-492 limits assumed: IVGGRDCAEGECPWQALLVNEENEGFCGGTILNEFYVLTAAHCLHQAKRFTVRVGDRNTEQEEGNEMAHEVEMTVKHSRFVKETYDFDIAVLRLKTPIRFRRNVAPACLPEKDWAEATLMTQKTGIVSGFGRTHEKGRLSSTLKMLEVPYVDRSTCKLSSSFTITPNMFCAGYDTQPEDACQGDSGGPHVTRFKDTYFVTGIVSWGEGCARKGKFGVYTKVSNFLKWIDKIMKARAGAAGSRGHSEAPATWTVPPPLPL

Assays:
[1] = biological target: T1, FXa human (Homo sapiens, UniProt P00742); test: Determination of kinetic constants for FXa human (plasma activated with RVV+CaCl2); type: biochemical; conditions: trisbuffer pH 7.0, I=0.25, 37° C.
T1 construct: from tissue; host or cells: human plasma
Procedure: The kinetic data for the substrates are determined by measuring the initial velocity of hydrolysis (Vi) at different substrate concentrations (Si) and at constant enzyme concentrations (Eo). The binding constant (Km) and the maximum velocity (Vmax) are obtained in known manner from Lineweaver-Burk-plot, then the Kcat is calculated (Hemker H. C. loc. cit.)
The substrates in concentrations between 0.1-0.7 mmol/l (Si) are mixed with FXa human plasma and treated according to the method as described by Aurell; L., et al. (Perspectives in Hemostatis, Ed. Fareed J. et al, New York, Pergamon Press 1981, p. 382-388).
10 μl test plasma, control or standard and 200 μl trisbuffer solution (0.05 mol/l tris, pH 7.0, I=0.25 (NaCl)), polybrene (0.1 g/l) are mixed and incubated at 37° C. for 2-4 minutes. 200 μl substrate (37° C.) in concentrations between 0.1-0.7 mmol/l dissolved in trisbuffer solution prepared according to the above are added. The mixture is well stirred and within 30 seconds 200 μl RVV+CaCl2 (20°-25° C.) are added and the mixture is stirred. The absorbance change is measured at once in a spectrophotometer at 405 nm and 37° C.

[2] = biological target: T2, Thrombin bovine (Bos taurus, UniProt P00735); test: Determination of thrombin sensitivity; type: biochemical; conditions: Kcat/Km FXa bovine divided by Kcat/Km thrombin bovine
T2 construct: Thrombin bovine (KabiVitrum) with a constant concentration E0 =1.3 nmol/l; purchased KabiVitrum

[3] = biological target: FXa bovine (Bos taurus, UniProt P00743); test: Determination of the kinetic constants for FXa bovine (chromogenic/fluorogenic substrate hydrolysis); conditions: trisbuffer pH 8.3, I=0.25, 37° C.

SMILES | Vmax /Km [1] [min⁻¹] | ratio for the selectivity constant FXa bovine through thrombin [2] | Kcat /Km (selectivity constant) [3] [l/μmol · sek]
CC(C)C[C@@H](NS(C)(=O)=O)C(=O)NCC(=O)N[C@@H](CCCNC(=N)N)C(=O)Nc1ccc([N+](=O)[O-])cc1 [CBS 31.39, CH3 SO2 --D--Leu--Gly--Arg--pNA.AcOH, reference compound] (Ms-[dL]-Gly-Arg-pNA) | 0.057 | 3.2 | 1.00
N=C(N)NCCC[C@H](NC(=O)CNC(=O)[C@@H](CCCNC(=N)N)NC(=O)OCc1ccccc1)C(=O)Nc1ccc([N+](=O)[O-])cc1 [Example 1, N^α --Z--D--Arg--Gly--Arg--pNA.2HCl] (Cbz-[dR]-Gly-Arg-pNA) | 0.192 | 22.7 | 2.27
CCS(=O)(=O)N[C@H](CCCNC(=N)N)C(=O)NCC(=O)N[C@@H](CCCNC(=N)N)C(=O)Nc1ccc([N+](=O)[O-])cc1 [Example 4, N^α --Ets--D--Arg--Gly--Arg--pNA.2HCl] | 0.135 | 25.4 | 1.42
COc1ccc(COC(=O)N[C@H](CCCNC(=N)N)C(=O)NCC(=O)N[C@@H](CCCNC(=N)N)C(=O)Nc2ccc([N+](=O)[O-])cc2)cc1 [Example 9, N^α --Moz--D--Arg--Gly--Arg--pNA.2HCl] | 0.242 | 13.6 | 2.06
N=C(N)NCCC[C@H](NC(=O)CNC(=O)[C@@H](CCCNC(=N)N)NS(=O)(=O)Cc1ccccc1)C(=O)Nc1ccc([N+](=O)[O-])cc1 [Example 16, N^α --Bzls--D--Arg--Gly--Arg--pNA.2HCl] | 0.300 | 25.9 | 2.75
